{
  "source": "paper PMC6359543",
  "about": "“Efficacy of Azatyrosine-Phenylbutyric Hydroxamides, a Histone Deacetylase Inhibitor, on Chemotherapy-Induced Gastrointestinal Mucositis” (International Journal of Molecular Sciences, 2019)",
  "test_system": "male ICR mice",
  "assay": "Micronucleus test",
  "details": "Cyclophosphamide 200 mg/kg",
  "data": [
    {"smiles": "O=P1(N(CCCl)CCCl)NCCCO1", "note": "(centres unmarked) [Cyclophosphamide]", "values": [
      {"measurement": "Number of Micronuclei (‰)", "setting": "Day 2", "value": "4.80±0.08 ‰"},
      {"measurement": "Number of Micronuclei (‰)", "setting": "Day 3", "value": "4.40±0.19 ‰"}
    ]}
  ]
}
